The results in this text go back to article PMC4075192 (Drug metabolism and pharmacokinetics, 2013).

By UniProt entry, the sequences of proteins in these tests, tags left out. Residues count along the entry.
UniProt P08684, 2-503: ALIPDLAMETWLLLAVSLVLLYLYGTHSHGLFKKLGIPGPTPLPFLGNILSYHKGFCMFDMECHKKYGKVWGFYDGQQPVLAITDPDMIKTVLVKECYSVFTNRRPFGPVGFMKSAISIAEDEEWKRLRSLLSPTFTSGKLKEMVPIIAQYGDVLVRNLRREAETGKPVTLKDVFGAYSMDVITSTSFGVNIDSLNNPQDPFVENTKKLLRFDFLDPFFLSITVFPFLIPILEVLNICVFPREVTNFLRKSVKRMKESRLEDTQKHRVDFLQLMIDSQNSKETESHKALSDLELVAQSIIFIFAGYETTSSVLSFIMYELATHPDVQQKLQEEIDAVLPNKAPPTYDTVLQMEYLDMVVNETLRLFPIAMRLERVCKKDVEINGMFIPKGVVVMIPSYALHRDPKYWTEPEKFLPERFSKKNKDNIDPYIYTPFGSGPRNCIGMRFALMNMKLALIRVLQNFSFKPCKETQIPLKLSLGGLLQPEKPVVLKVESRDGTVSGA

The data set concerns the target CYP3A (Homo sapiens, UniProt P08684). The data set can be described thus: Inhibition of CYP3A. Format: in vitro ADME. The following applies: pooled HLMs.

The structures appear in SMILES notation.

Regarding `O=C1Nc2ccc(Cl)cc2[C@@](C#CC2CC2)(C(F)(F)F)O1` [efavirenz, Efavirenz], where the note is “50 μM efavirenz, 10 μM testosterone”, the “inhibition of CYP3A activity” value was found to be 40%. The inhibition model entry (substrate testosterone) is “competitive”.
